Measurements reported in PMC7723054.
The other results are listed elsewhere or left out.

B1: PARIS_ID24 (structured_RNA)
RNA: GGGCAGUUAGGAGCCAGGUGGGGAUUCCGGUGUACGAAGUUUCAGCGGGAUCUCUUUUGCAUCCCGCUGAAGCUUCGUGCAC
B2: hsa-mir-3622b (structured_RNA)
RNA: GGGAACAGGUUAUCCUUUGGACGCAAUCGGUGUACGAAGUUUCAGCGUGAGCUCAGCUCCCUGCCUCACGCUGAAGCUUCGUGCAC
B3: hsa-mir-2467 (structured_RNA)
RNA: GGGAACCACUCAGUUCGCUAAUCCAUAGGGUGUACGAAGUUUCAGCGGCUCUGGGUCCUGCUCCUUAGAGCAGCUGAAGCUUCGUGCAC
B4: hsa-mir-4295 (structured_RNA)
RNA: GGGAAGCGCAGUAGGUGAUAUCCGUUCCGGUGUACGAAGUUUCAGCCCUUGCCUGUGGCAAGACCACUUCGGUUCAAGGGCUGAAGCUUCGUGCAC
B5: hsa-mir-4520-2 (structured_RNA)
RNA: GGGAAAACUUCGGGGCUCCCGUACAUCUGGUGUACGAAGUUUCAGCCCAAAUCCUUUUCUGAUUUGGGCUGAAGCUUCGUGCAC
B6: hsa-mir-6744 (structured_RNA)
RNA: GGGAAUCCUGUAGAGGAUACCGACAAGAGGUGUACGAAGUUUCAGCGCCUCCUGGAUCUCUAGGUCUCAGGGCGCUGAAGCUUCGUGCAC
B7: hsa-mir-1181 (structured_RNA)
RNA: GGGAACGAGGCUGACCUUGGGCAAUAGGGGUGUACGAAGUUUCAGCGCCGGAGCGGGCGCUGAAGCUUCGUGCAC
B8: NEAT1_ParasoR_ID6 (structured_RNA)
RNA: GGGAACGUUGGCGGCCUAGAUUAAGACUGGUGUACGAAGUUUCAGCUACUAAAAUGUAGCUGAAGCUUCGUGCAC
B9: hsa-mir-3916 (structured_RNA)
RNA: GGGAACAUGCCGUACUAGGCAGUCCCUUGGUGUACGAAGUUUCAGCUCAGGUGAAUGUGUCUGGGCUGAAGCUUCGUGCAC
B10: hsa-mir-4670 (structured_RNA)
RNA: GGGAGCUUCCAUAAUAGCAGUCUCGUGUGGUGUACGAAGUUUCAGCUUCACAGACUCUCCAAAAGUCUGAAGCUGAAGCUUCGUGCAC
B11: hsa-mir-1200 (structured_RNA)
RNA: GGGACAUGUCUUCGAUCCAAUGGAAAGAGGUGUACGAAGUUUCAGCCCUCAAUCACUUGCCAGAGAGAUUGGGCUGAAGCUUCGUGCAC
B12: NEAT1_ParasoR_ID52 (structured_RNA)
RNA: GGGAACGGAUUAAGACCGUGCAUCAACUGGUGUACGAAGUUUCAGCGGCCCCCAGGGUCGCUGAAGCUUCGUGCAC
B13: hsa-mir-1914 (structured_RNA)
RNA: GGGAAGAAAAUUCCCAGCAAACUCCCCUGGUGUACGAAGUUUCAGCCUUCUGCUUCCUCUUAGCGCAGGAGGCUGAAGCUUCGUGCAC

What was measured:
Assay in all cases: FOREST: bead pull-down of RNA structure library v1, barcode microarray; U1A/LIN28A: 20 mM HEPES pH 7.5, 80 mM KCl, 20 mM NaCl, 10% glycerol, 2 mM DTT, 0.1 ug/uL BSA, 4 C; BG4/CIRBP/DHX36: 10 mM Tris-HCl pH 7.5, 100 mM KCl (or LiCl),; high values mean tight binding
LIN28A = target: T1, LIN28A (human?, UniProt Q9H9Z2 1-209)
T1 sequence: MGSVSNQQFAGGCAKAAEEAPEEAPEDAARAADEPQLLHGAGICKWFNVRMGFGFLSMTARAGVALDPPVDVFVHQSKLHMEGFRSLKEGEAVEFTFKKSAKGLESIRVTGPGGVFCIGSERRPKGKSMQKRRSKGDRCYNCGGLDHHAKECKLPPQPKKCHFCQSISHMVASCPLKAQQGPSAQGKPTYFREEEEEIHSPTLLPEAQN

CIRBP = target: T2, CIRBP (Homo sapiens, UniProt Q14011 1-172)
T2 sequence: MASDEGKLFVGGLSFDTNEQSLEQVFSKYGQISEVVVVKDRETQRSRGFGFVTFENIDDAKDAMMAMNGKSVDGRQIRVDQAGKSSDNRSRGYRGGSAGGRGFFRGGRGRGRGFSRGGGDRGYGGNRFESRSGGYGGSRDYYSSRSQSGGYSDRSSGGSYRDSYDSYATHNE

DHX36 = target: T3, DHX36 (Homo sapiens, UniProt Q9H2U1 1-1008)
T3 sequence: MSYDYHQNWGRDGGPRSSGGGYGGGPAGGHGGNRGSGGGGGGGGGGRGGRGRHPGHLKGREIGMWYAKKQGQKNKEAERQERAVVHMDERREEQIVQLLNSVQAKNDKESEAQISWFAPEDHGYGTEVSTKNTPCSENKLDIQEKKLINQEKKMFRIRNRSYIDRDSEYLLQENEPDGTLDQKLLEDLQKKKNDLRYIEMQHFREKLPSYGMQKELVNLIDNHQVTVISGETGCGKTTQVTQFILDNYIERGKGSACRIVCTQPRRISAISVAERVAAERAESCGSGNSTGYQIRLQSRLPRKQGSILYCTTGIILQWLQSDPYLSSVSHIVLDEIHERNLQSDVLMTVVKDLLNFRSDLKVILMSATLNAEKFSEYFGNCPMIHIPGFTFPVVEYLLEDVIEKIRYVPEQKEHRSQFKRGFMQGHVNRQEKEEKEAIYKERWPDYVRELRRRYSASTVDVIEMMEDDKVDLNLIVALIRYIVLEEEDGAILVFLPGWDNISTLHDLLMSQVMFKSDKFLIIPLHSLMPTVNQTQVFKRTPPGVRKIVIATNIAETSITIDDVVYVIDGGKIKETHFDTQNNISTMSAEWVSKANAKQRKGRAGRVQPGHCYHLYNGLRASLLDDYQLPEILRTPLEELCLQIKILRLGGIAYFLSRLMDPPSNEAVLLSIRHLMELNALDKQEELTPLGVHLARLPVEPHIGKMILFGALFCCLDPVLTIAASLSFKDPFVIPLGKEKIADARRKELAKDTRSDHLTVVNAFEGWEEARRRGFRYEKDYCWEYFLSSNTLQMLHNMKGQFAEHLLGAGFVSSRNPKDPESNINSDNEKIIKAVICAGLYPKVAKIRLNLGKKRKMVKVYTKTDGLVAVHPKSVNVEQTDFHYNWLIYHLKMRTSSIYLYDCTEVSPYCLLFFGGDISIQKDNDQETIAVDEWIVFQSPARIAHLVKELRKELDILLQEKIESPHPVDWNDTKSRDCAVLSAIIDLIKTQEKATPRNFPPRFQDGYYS

| Binder | binding signal (LIN28A) | binding signal (CIRBP) | binding signal (DHX36) |
| --- | --- | --- | --- |
| B1 | -2.35 z-score | -1.63 z-score | -1.03 z-score |
| B2 | -2.38 z-score | -0.498 z-score | -1.16 z-score |
| B3 | -2.4 z-score | -1 z-score | -0.935 z-score |
| B4 | -2.41 z-score | -0.636 z-score | -0.429 z-score |
| B5 | -2.41 z-score | -1.88 z-score | -0.278 z-score |
| B6 | -2.41 z-score | -1.25 z-score | -1.6 z-score |
| B7 | -2.41 z-score | -0.879 z-score | -0.258 z-score |
| B8 | -2.41 z-score | -0.829 z-score | -1.05 z-score |
| B9 | -2.45 z-score | -0.107 z-score | -1.05 z-score |
| B10 | -2.47 z-score | -1.23 z-score | -1.06 z-score |
| B11 | -2.48 z-score | 0.109 z-score | -1.16 z-score |
| B12 | -2.52 z-score | -0.377 z-score | -1.12 z-score |
| B13 | -2.52 z-score | -0.295 z-score | -1.39 z-score |
